{"sequences": {"note": "Sequences of proteins named here, by UniProt entry; tags and fusion partners are left off.", "UniProt P27338, whole entry": "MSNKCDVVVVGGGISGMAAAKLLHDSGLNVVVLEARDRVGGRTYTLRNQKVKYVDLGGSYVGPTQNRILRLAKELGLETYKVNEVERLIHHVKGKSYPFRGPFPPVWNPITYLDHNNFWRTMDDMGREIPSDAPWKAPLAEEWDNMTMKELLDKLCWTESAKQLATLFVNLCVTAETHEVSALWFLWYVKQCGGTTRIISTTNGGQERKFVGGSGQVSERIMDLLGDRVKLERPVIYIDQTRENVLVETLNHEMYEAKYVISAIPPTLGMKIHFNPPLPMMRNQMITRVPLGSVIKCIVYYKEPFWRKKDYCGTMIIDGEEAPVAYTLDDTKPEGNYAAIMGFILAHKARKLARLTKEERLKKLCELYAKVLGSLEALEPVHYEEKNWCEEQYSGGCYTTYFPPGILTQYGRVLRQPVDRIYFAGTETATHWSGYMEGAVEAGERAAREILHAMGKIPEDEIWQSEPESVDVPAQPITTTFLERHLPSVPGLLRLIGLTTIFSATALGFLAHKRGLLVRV"}, "source": "paper PMC7279487", "about": "“Dual Target Ligands with 4-tert-Butylphenoxy Scaffold as Histamine H3 Receptor Antagonists and Monoamine Oxidase B Inhibitors” (International Journal of Molecular Sciences, 2020)", "target": "T1, hMAO B (Homo sapiens, UniProt P27338)", "T1 construct": "purchased Sigma Aldrich M7441", "assay": "hMAO B reversibility studies", "assay_type": "biochemical", "method": "Reversibility of MAO B inhibitors was tested as described previously with slight modification. Two experiments were performed simultaneously. In the first experiment, inhibitors (in concentrations corresponding to their IC80 values) were incubated with the enzyme and p-tyramine (10 μM) for 22 min (measuring fluorescence every two minutes)."}
{"compound": "C#CCN[C@@H]1CCc2ccccc21", "note": "[rasagiline, reference compound]", "values": [{"measurement": "effect of 30 min preincubation with enzyme on hMAO B inhibition", "result": "showed higher inhibition when preincubated with hMAOB"}]}
